# Measurements from patent US10730889B2, “Amido spirocyclic amide and sulfonamide derivatives” (Forma TM, LLC, priority 2012, dated 2020).
# Sequences of proteins named here, by UniProt entry; tags and fusion partners are left off. A change or cut given only in a name is not applied to a line headed by its entry.
# UniProt P43490: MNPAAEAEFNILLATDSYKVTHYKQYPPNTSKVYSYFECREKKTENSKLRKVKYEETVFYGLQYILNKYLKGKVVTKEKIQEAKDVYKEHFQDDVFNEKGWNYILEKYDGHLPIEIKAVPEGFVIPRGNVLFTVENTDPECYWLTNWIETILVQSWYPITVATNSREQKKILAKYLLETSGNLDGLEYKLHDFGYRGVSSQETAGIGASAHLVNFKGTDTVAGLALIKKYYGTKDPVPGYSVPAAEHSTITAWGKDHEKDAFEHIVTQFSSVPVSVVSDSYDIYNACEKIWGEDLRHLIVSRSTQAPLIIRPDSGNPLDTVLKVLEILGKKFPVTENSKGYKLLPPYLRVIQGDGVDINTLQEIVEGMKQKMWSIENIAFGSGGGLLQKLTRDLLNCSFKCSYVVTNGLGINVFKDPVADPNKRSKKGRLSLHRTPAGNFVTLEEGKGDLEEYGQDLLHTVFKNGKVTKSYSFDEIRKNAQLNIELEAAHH
# Molecular target: NAMPT (Homo sapiens (Human), UniProt P43490)
# Assay: Biochemical inhibition assay (NAMPT enzymatic reaction, NMN quantified by mass spectrometry)
row,SMILES,IC50 [nM]
1,CC(C)(CO)OC(=O)N1CCC2(CC1)CC2CNC(=O)N1Cc2ccncc2C1 (centres unmarked),28.8
2,CC(=O)NCC(C)(C)OC(=O)N1CCC2(CC1)CC2CNC(=O)N1Cc2ccncc2C1 (centres unmarked),20.2
3,CC(C)(O)COC(=O)N1CCC2(CC1)CC2CNC(=O)N1Cc2ccncc2C1 (centres unmarked),67.5
4,"O=C(NCC1CC12CCN(C(=O)C1CCOCC1)CC2)c1cc2cnccc2[nH]1 (centres unmarked) [Example 10, N-[[8-(tetrahydropyran-4-carbonyl)-8-azaspiro[2.5]octan-2-yl]methyl]-1H-pyrrolo[3,2-c]pyridine-2-carboxamidc]",208
5,"CC(C)(C)OC(=O)N1CCC2(CC1)CC(CNC(=O)c1ccc3nccn3c1)C2 [Example 21, tert-butyl 2-((imidazo[1,2-a]pyridine-6-carboxamido)methyl]-7-azaspiro[3.5]nonane-7-carboxylate]",175
6,"O=C(NCC1CC12CCN(C(=O)Cn1ccnc1)CC2)c1cc2ccncc2o1 (centres unmarked) [Example 26, N-[[6-(2-imidazol-1-ylacetyl)-6-azaspiro[2.5]octan-2-yl]methyl]furo[2,3-c]pyridine-2-carboxamide]",304
7,"O=C(NCC1CC12CCN(C(=O)CCC(F)(F)F)CC2)c1cc2ccncc2o1 (centres unmarked) [Example 27, N-[[6-(4,4,4-trifluorobutanoyl)-6-azaspiro[2.5]octan-2-yl]methyl]furo[2,3-c]pyridine-2-carboxamide]",50.4
8,"CS(=O)(=O)c1cccc(CC(=O)N2CCC3(CC2)CC3CNC(=O)c2cc3ccncc3o2)c1 (centres unmarked) [Example 28, N-[[6-[2-(3-methylsulfonylphenyl)acetyl]-6-azaspiro[2.5]octan-2-yl]methyl]furo[2,3-c]pyridine-2-carboxamide]",64.2
9,"CC(C)(C)CC(=O)N1CCC2(CC1)CC2CNC(=O)c1cc2ccncc2o1 (centres unmarked) [Example 29, N-[[6-(3,3-dimethylbutanoyl)-6-azaspiro[2.5]octan-2-yl]methyl]furo[2,3-c]pyridine-2-carboxamide]",11.1
10,"N#Cc1cccc(CC(=O)N2CCC3(CC2)CC3CNC(=O)c2cc3ccncc3o2)c1 (centres unmarked) [Example 31, N-[[6-[2-(3-cyanophenyl)acetyl]-6-azaspiro[2.5]octan-2-yl]methyl]furo[2,3-c]pyridine-2-carboxamide]",37.3
11,"O=C(NCC1CC12CCN(C(=O)CN1CCCC1)CC2)c1cc2ccncc2o1 (centres unmarked) [Example 33, N-[[6-(2-pyrrolidin-1-ylacetyl)-6-azaspiro[2.5]octan-2-yl]methyl]furo[2,3-c]pyridine-2-carboxamide]",1120
12,"Cc1cc(CC(=O)N2CCC3(CC2)CC3CNC(=O)c2cc3ccncc3o2)on1 (centres unmarked) [Example 34, N-[[6-[2-(3-methylisoxazol-5-yl)acetyl]-6-azaspiro[2.5]octan-2-yl]methyl]furo[2,3-c]pyridine-2-carboxamide]",54.2
13,"O=C(NCC1CC12CCN(C(=O)CN1CCCCC1)CC2)c1cc2ccncc2o1 (centres unmarked) [Example 35, N-[[6-[2-(1-piperidyl)acetyl]-6-azaspiro[2.5]octan-2-yl]methyl]furo[2,3-c]pyridine-2-carboxamide]",563
14,"O=C(NCC1CC12CCN(C(=O)CC1CCOCC1)CC2)c1cc2ccncc2o1 (centres unmarked) [Example 36, N-[[6-(2-tetrahydropyran-4-ylacetyl)-6-azaspiro[2.5]octan-2-yl]methyl]furo[2,3-c]pyridine-2-carboxamide]",89.3
15,"O=C(NCC1CC12CCN(C(=O)CC1CCCO1)CC2)c1cc2ccncc2o1 (centres unmarked) [Example 37, N-[[6-(2-tetrahydrofuran-2-ylacetyl)-6-azasptro[2.5]octan-2-yl]methyl]furo[2,3-c]pyridine-2-carboxamide]",155
16,"CC(C)(C)OCC(=O)N1CCC2(CC1)CC2CNC(=O)c1cc2ccncc2o1 (centres unmarked) [Example 38, N-[[6-(2-tert-butoxyacetyl)-6-azaspiro[2.5]octan-2-yl]methyl]furo[2,3-c]pyridine-2-carboxamide]",40
17,"O=C(NCC1CC12CCN(C(=O)Cc1cccnc1)CC2)c1cc2ccncc2o1 (centres unmarked) [Example 39, N-[[6-[2-(3-pyridyl)acetyl]-6-azaspiro[2.5]octan-2-yl]methyl]furo[2,3-c]pyndine-2-carboxamide]",47
18,"O=C(NCC1CC12CCN(C(=O)CC1CCN(CC(F)(F)F)CC1)CC2)c1cc2cnccc2[nH]1 (centres unmarked) [Example 40, N-[[6-[2-[1-(2,2,2-trifluoroethyl)-4-piperidyl]acetyl]-6-azaspiro[2.5]octan-2-yl]methyl]-1H-pyrrolo[3,2-c]pyridine-2-carboxamide]",130
19,"CC(C)CC(=O)N1CCC2(CC1)CC2CNC(=O)c1cc2cnccc2[nH]1 (centres unmarked) [Example 46, N-[[6-(3-methylbutanoyl)-6-azaspiro[2.5]octan-2-yl]methyl]-1H-pyrrolo[3,2-c]pyridine-2-carboxamide]",120
20,"O=C(Cc1ccccc1)N1CCC2(CC1)CC2CNC(=O)N1Cc2ccncc2C1 (centres unmarked) [Example 47, N-[[6-(2-phenylacetyl)-6-azaspiro[2.5]octan-2-yl]methyl]-1,3-dihydropyrrolo[3,4-c]pyridine-2-carboxamide]",4.59
21,"O=C(NCC1CC12CCN(C(=O)Cc1cnccn1)CC2)c1cc2ccncc2o1 (centres unmarked) [Example 50, N-[[6-(2-pyrazin-2-ylacetyl)-6-azasptro[2.5]octan-2-yl]methyl]furo[2,3-c]pyridine-2-carboxamide]",309
22,"O=C(NCC1CC12CCN(C(=O)CN1CCOCC1)CC2)c1cc2ccncc2o1 (centres unmarked) [Example 51, N-[[6-(2-morpholinoacetyl)-6-azaspiro[2.5]octan-2-yl]methyl]furo[2,3-c]pyridine-2-carboxamide]",173
23,"O=C(NCC1CC12CCN(C(=O)CC1CCCCO1)CC2)c1cc2ccncc2o1 (centres unmarked) [Example 52, N-[[6-(2-tetrahydropyran-2-ylacetyl)-6-azaspiro[2.5]octan-2-yl]methyl]furo[2,3-c]pyridine-2-carboxamide]",135
24,"CC(C(=O)N1CCC2(CC1)CC2CNC(=O)c1cc2ccncc2o1)N1CCCC1 (centres unmarked) [Example 53, N-[[6-(2-pyrrolidin-1-ylpropanoyl)-6-azaspiro[2.5]octan-2-yl]methyl]furo[2,3-c]pyridine-2-carboxamide]",420
25,"CN(C)C(=O)CCC(=O)N1CCC2(CC1)CC2CNC(=O)c1cc2ccncc2o1 (centres unmarked) [Example 55, N-[[6-[4-(dimethylamino)-4-oxo-butanoyl]-6-azaspiro[2.5]octan-2-yl]methyl]furo[2,3-c]pyridine-2-carboxamide]",1060
26,"O=C(NCC1CC12CCN(C(=O)C1CC1(F)F)CC2)c1cc2ccncc2o1 (centres unmarked) [Example 58, N-[[6-(2,2-difluorocyclopropanecarbonyl)-6-azaspiro[2.5]octan-2-yl]methyl]furo(2,3-c]pyridine-2-carboxamide]",422

# Continued, values first:
row,IC50 [nM],SMILES
1,1130,"Cc1nn(C)c(C)c1C(=O)N1CCC2(CC1)CC2CNC(=O)c1cc2ccncc2o1 (single isomer, unassigned) [Example 300, N-[[6-(1,3,5-trimethylpyrazole-4-carbonyl)-6-azaspiro[2.5]octan-2-yl]methyl]furo[2,3-c]pyridine-2-carboxamide]"
2,42.5,"Cc1nn(C)c(C)c1C(=O)N1CCC2(CC1)CC2CNC(=O)c1cc2ccncc2o1 (single isomer, unassigned) [Example 301, N-[[6-(1,3,5-trimethylpyrazole-4-carbonyl)-6-azaspiro[2.5]octan-2-yl]methyl]furo[2,3-c]pyridine-2-carboxamide]"
3,928,"Cc1nc(C)c(C(=O)N2CCC3(CC2)CC3CNC(=O)c2cc3ccncc3o2)o1 (single isomer, unassigned) [Example 384, N-[[6-(2,4-dimethyloxazole-5-carbonyl)-6-azaspiro[2.5]octan-2-yl]methyl]furo[2,3-c]pyridine-2-carboxamide (single isomer)]"
4,575,"CN1CC(C(=O)N2CCC3(CC2)CC3CNC(=O)c2cc3ccncc3o2)CC1=O (centres unmarked) [Example 56, N-[[6-(1-methyl-5-oxo-pyrrolidine-3-carbonyl)-6-azaspiro[2.5]octan-2-yl]methyl]furo[2,3-c]pyridine-2-carboxamide]"
5,223,"O=C(NCC1CC12CCN(C(=O)CN1CCCC1=O)CC2)c1cc2ccncc2o1 (centres unmarked) [Example 57, N-[[6-[2-(2-oxopyrrolidin-1-yl)acetyl]-6-azaspiro[2.5]octan-2-yl)methyl]furo[2,3-c]pyridine-2-carboxamide]"
6,782,"O=C(NCC1CC12CCN(C(=O)C1CCOC1)CC2)c1cc2ccncc2o1 (centres unmarked) [Example 59, N-[[6-(tetrahydrofuran-3-carbonyl)-6-azaspiro[2.5]octan-2-yl]methyl]furo[2,3-c]pyridine-2-carboxamide]"
7,309,"O=C(NCC1CC12CCN(C(=O)C1CCOCC1)CC2)c1cc2ccncc2o1 (centres unmarked) [Example 60, N-[[6-(tetrahydropyran-4-carbonyl)-6-azaspiro[2.5]octan-2-yl]methyl]furo[2,3-c]pyridine-2-carboxamide]"
8,395,"O=CNCC(=O)N1CCC2(CC1)CC2CNC(=O)c1cc2ccncc2o1 (centres unmarked) [Example 62, N-[[6-(2-formamidoacetyl)-6-azaspiro[2.5]octan-2-yl]methyl]furo[2,3-c]pyridine-2-carboxamide]"
9,177,"Cc1cc(C)n(CCC(=O)N2CCC3(CC2)CC3CNC(=O)c2cc3ccncc3o2)n1 (centres unmarked) [Example 63, N-[[6-[3-(3,5-dimethylpyrazol-1-yl)propanoyl]-6-azaspiro[2.5]octan-2-yl]methyl]furo[2,3-c]pyridine-2-carboxamide]"
10,398,"NC(=O)N1CCCC1C(=O)N1CCC2(CC1)CC2CNC(=O)c1cc2ccncc2o1 (centres unmarked) [Example 64, N-[[6-(1-carbamoylpyrrolidine-2-carbonyl)-6-azaspiro[2.5]octan-2-yl]methyl]furo[2,3-c]pyridine-2-carboxamide]"
11,526,"O=C(NCC1CC12CCN(C(=O)CCN1CCOCC1)CC2)c1cc2ccncc2o1 (centres unmarked) [Example 65, N-[[6-(3-morpholinopropanoyl)-6-azaspiro[2.5]octan-2-yl]methyl]furo[2,3-c]pyridine-2-carboxamide]"
12,1040,"O=C(NCC1CC12CCN(C(=O)C1CCS(=O)(=O)C1)CC2)c1cc2ccncc2o1 (centres unmarked) [Example 66, N-[[6-(1,1-dioxothiolane-3-carbonyl)-6-azaspiro[2.5]octan-2-yl]methyl]furo[2,3-c]pyridine-2-carboxamide]"
